Earlier results, collected in patent publication US12357621B2, “BET inhibitors as a treatment for myelofibrosis” (Impact Biomedicines, Inc., priority 2021, dated 2025).

Protein sequences, listed by entry. Tags and fused reporters are not part of them. Lines headed by an entry give the natural chain unless they say otherwise; changes in a name come on top.
UniProt O60674: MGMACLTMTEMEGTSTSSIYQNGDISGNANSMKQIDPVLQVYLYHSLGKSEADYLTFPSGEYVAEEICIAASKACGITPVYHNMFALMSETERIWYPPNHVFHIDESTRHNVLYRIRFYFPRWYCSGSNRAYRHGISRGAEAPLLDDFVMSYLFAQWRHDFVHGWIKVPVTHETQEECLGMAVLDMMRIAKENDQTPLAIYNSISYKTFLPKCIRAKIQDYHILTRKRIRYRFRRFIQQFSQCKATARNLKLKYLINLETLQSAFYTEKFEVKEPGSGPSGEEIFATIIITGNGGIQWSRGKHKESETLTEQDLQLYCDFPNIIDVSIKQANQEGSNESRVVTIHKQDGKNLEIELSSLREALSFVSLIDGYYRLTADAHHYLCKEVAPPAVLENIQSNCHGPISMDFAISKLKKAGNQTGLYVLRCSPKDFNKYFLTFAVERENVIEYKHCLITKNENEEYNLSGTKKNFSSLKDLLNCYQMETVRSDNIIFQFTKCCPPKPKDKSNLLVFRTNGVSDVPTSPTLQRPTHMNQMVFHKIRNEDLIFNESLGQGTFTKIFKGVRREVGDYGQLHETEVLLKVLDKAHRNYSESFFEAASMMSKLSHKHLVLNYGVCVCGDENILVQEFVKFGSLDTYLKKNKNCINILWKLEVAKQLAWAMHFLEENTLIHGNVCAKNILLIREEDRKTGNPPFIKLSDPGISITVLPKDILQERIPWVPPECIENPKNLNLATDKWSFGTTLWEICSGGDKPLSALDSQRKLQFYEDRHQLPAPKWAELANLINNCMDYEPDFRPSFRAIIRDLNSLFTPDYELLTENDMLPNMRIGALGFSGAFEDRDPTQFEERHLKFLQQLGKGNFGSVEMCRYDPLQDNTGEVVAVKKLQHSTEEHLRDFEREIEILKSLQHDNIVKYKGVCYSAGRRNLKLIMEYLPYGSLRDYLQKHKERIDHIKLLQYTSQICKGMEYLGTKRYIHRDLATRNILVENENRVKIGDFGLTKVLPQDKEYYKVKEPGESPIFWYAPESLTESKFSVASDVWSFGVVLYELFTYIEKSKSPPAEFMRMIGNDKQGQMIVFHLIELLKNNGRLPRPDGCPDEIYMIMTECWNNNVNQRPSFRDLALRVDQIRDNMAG

Biological target: JAK2 (Homo sapiens, UniProt O60674)
Settings: cited from earlier work

For `Cc1cnc(Nc2ccc(OCCN3CCCC3)cc2)nc1Nc1cccc(S(=O)(=O)NC(C)(C)C)c1` [fedratinib], the “inhibitory activity for JAK2 over family members JAK1, JAK3, and TYK2” value is given as “higher”.
